Data from publication PMC2110886 (PLoS ONE, 2007).

Assay: Steady-state plasma pharmacokinetics, open-label randomized three-way crossover study, drugs alone or in combination
Settings: Amantadine + Oseltamivir/Oseltamivir alone

Row | SMILES | AUCtau (AUC0-12), ratio of geometric means (oseltamivir carboxylate in plasma) | AUCtau (AUC0-12), ratio of geometric means (oseltamivir carboxylate in plasma, listed as oseltamivir carboxylate) | AUCtau (AUC0-12), ratio of geometric means (oseltamivir in plasma) | AUCtau (AUC0-12), ratio of geometric means (oseltamivir in plasma, listed as oseltamivir)
1 | CCC(CC)O[C@@H]1C=C(C(=O)O)C[C@H](N)[C@H]1NC(C)=O [Oseltamivir carboxylate, oseltamivir carboxylate] | 0.98 | 0.98 (0.95, 1.02) | – | –
2 | CCOC(=O)C1=C[C@@H](OC(CC)CC)[C@H](NC(C)=O)[C@@H](N)C1 [Oseltamivir, oseltamivir, reference compound] | – | – | 0.92 | 0.92 (0.86, 0.99)
